Assay results published in patent publication US20190062443A1 (GALAXY BIOTECH, published 2019).

What was measured:
DR5-KF fusion protein [1] = molecular target: T1, DR5-KF fusion protein (human, UniProt O14763 54-183; P01834 1-107, limits assumed); assay: capture ELISA with DR5-KF (FIG. 2C legend)
DR5-KF fusion protein [2] = molecular target: T1, DR5-KF fusion protein; assay: sandwich ELISA for simultaneous binding: anti-DR4 mAb coat, DR4-hFc 0.5 µg/ml, test mAb, DR5-KF 0.5 µg/ml, HRP-anti-Flag M2 (FIG. 20A); no DR5-KF captured

| Binder | binding result (DR5-KF fusion protein [1]) | binding result (DR5-KF fusion protein [2]) |
| --- | --- | --- |
| G4.2 (antibody, V domains shown, also called G4.2 mAb; mouse G4.2) VH: DVKLVESGGGLVKLGGSLKLSCAASGLPFNSYYMSWVRQTPEKRLELVAAINSNGGRIHYPDTVKGRFTISRDNAKNTLYLQMSSLKSEDTALYYCTRLTYYGNPAWFAYWGQGTLVTVSA VL: NIVLTQSPASLAVSLGQRATMSCRASESVDIYGNSFMHWYQQKPGQPPKLLIYLSSNLESGVPARFSGSGSRTDFTLTIDPVEADDAATYYCQQSYEDPLTFGAGTKLDLK | binds | – |
| 4H6-hFc** (antibody, V domains shown, also called 4H6-hFc** (2); 4H6-Fc**) VH: QVQLKESGPGLVAPSQSLSITCTVSGFSLTSYGVHWVRQPPGKGLEWLGVIWAVGSTNYNSALMSRLSISKDNSKSQVFLKMNSLQTDDTAMYYCAREGEFDYYGSSLLSYHSMNFWGQGTSVTVSS VL: DIQMTQTTSSLSASLGDRVTISCRASQDISNYLNWYQRKPDGTVKLLIYYTSRLHSGVPSRFSGSGSGTDYSLTISNLEQEDIATYFCQQGNTLPFTFGSGTKLEIK | – | no binding |
